Ab-95 light chain CDR variants: yeast mating affinities

The measurements come from Engelhart et al. 2022 (doi:10.1038/s41597-022-01779-4) through the FLAb antibody collection.

All variants were tested on one target, the spike HR2 peptide PDVDLGDISGINAS (SARS-CoV-2).

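Phage display of a naive human antibody library on the peptide gave the parent. AAYL52 was designed without a model: most single CDR substitutions and a random sample of double and triple ones. In AlphaSeq, yeast of one mating type display the scFv and yeast of the other type display the target. After mating in shaken culture at 30 °C for 16 h, diploids were selected and their barcode pairs sequenced. A regression on co-assayed BCL2-family reference pairs converts the normalised counts of each replicate to an apparent Kd. There are three technical replicates.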

Each scFv is VH, the linker GGGGSGGGGSGGGGS, VL, as in the parent Ab-95, and differs from it in the CDRs of the light chain only.
VH: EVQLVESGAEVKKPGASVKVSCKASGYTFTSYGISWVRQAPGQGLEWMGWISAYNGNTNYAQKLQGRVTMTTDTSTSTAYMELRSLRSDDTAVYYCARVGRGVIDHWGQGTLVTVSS
VL: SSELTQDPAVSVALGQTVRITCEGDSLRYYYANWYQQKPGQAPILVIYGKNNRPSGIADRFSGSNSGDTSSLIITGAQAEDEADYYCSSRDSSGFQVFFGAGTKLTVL

The parent's light chain CDRs are EGDSLRYYYAN, GKNNRPS, SSRDSSGFQVF; each variant's own CDRs replace them letter for letter. Affinities are written as log10 Kd with Kd in nM; a lower number is a better binder. The mean shown is taken over the replicates in which the pair was detected. An entry "nd" has no value in the source: the pair was not observed among the diploids in that replicate. This suggests poor binding but is not conclusive. Entries are sorted by rising average, undetected variants last. Background: pairings of library AAYL52 with three empty control strains gave a value in 28% of cases (median 3.91, 5th percentile 2.90). Values in that range, when seen in few replicates, are hard to tell from nonspecific mating.

| # | CDR-L1 | CDR-L2 | CDR-L3 | log10 Kd, replicates | mean log10 Kd (nM) |
|---|---|---|---|---|---|
| 1 | EGDSLRYYYSN | GKNNRPS | SSRDSSEFQLF | 2.51 2.24 2.70 | 2.48 |
| 2 | EGDYLRYYYHN | GKNNRPS | SGRDSSGFQVF | 2.19 2.46 2.95 | 2.53 |
| 3 | VGDSLRYWYAN | GKNNRPS | SSRDSSGFQVN | 1.91 3.80 2.32 | 2.68 |
| 4 | EGDSLRYYYAN | GKNGRPS | SSRDSSGFFVF | 2.57 2.88 2.60 | 2.68 |
| 5 | MGDSLRYYYAN | GKNNRPS | SWRDSAGFQVF | 2.65 2.79 2.66 | 2.70 |
| 6 | EGDSLRAYYAN | GKNRRPS | SSRDFSGFQVF | 3.44 2.70 2.41 | 2.85 |
| 7 | EGDSLRYYYAN | GKNNRSS | SSRDSSGNQVV | 3.12 2.24 3.23 | 2.87 |
| 8 | LGDPLRYYYAN | GKNNRPS | SSRDSSGAQVF | 2.79 2.80 3.10 | 2.90 |
| 9 | EGDTLRYYYAN | GKNNRPS | SHRQSSGFQVF | 3.50 2.84 2.49 | 2.94 |
| 10 | EGDSLRYYYAN | GKNNRPR | SARDSSGFQEF | 3.49 3.13 2.39 | 3.00 |
| 11 | EGDSLRYYYAN | GAFNRPS | SSRDSSGFEVF | 3.16 3.71 2.93 | 3.27 |
| 12 | EGDNLAYYYAN | GKNNRPS | CSRDSSGFQVF | 3.45 nd 3.20 | 3.33 |
| 13 | EGDSLRYYWAN | MKNNRPS | SARDSSGFQVF | 3.34 3.47 nd | 3.41 |
| 14 | RGDSLQYYYAN | GKNNRPS | SSRVSSGFQVF | nd 3.40 3.44 | 3.42 |
| 15 | ESDSLRYYYWN | GKNNRPS | SSRDSSGFSVF | nd 3.26 3.58 | 3.42 |

The remaining entries, values ahead:

| # | log10 Kd, replicates | mean log10 Kd (nM) | CDR-L1 | CDR-L2 | CDR-L3 |
|---|---|---|---|---|---|
| 16 | 3.29 3.35 3.74 | 3.46 | EGDELRTYYAN | GKNNRPS | SSRCSSGFQVF |
| 17 | nd 3.67 nd | 3.67 | EGQSLRYYYAN | GKFNRPS | SSRDSSGFQGF |
| 18 | 3.63 3.56 3.91 | 3.70 | CGDSLRYYYAN | GKMDRPS | SSRDSSGFQVF |
| 19 | 3.71 3.15 4.35 | 3.74 | EGDSLRYYYAN | MKNNRPS | MSRDSSGFQVF |
| 20 | 4.51 4.14 3.80 | 4.15 | EGDSMRYYYAN | GKNNRPS | SSMDSGGFQVF |
| 21 | 4.98 3.49 nd | 4.24 | EGDSLRYYYVN | GINNRPS | SSRDSSGPQVF |
| 22 | 4.09 4.57 nd | 4.33 | EGDSLRYYYAQ | GKNTRPS | SSSDSSGFQVF |
| 23 | 4.85 nd 4.30 | 4.58 | EGDSLRYYYFD | GKNNRFS | SSRDSSGFQVF |
| 24 | nd 5.02 nd | 5.02 | ELDSLRYYYKN | GKNNRPS | SSTDSSGFQVF |
| 25 | 5.16 5.38 nd | 5.27 | PGDSLRYYYAS | HKNNRPS | SSRDSSGFQVF |
| 26 | nd nd nd | nd | EGDELRSYYAN | NKNNRPS | SSRDSSGFQVF |
| 27 | nd nd nd | nd | EGDLNRYYYAN | GKNNRCS | SSRDSSGFQVF |
| 28 | nd nd nd | nd | EGDSLGYYYAP | GKNNRPS | SSRDSSGFQSF |
| 29 | nd nd nd | nd | EGDSLRYYYAN | GKNERPS | FSRDPSGFQVF |
| 30 | nd nd nd | nd | DGDSLRYYYAN | GKYNRPS | SSRDSSGFQVN |
| 31 | nd nd nd | nd | EGDSLRYYYAN | GKPNRPS | SSRDSSGYQVL |

The opening 4 entries, copied out:

| CDR-L1 | CDR-L2 | CDR-L3 | log10 Kd, replicates | mean log10 Kd (nM) |
|---|---|---|---|---|
| EGDSLRYYYSN | GKNNRPS | SSRDSSEFQLF | 2.51 2.24 2.70 | 2.48 |
| EGDYLRYYYHN | GKNNRPS | SGRDSSGFQVF | 2.19 2.46 2.95 | 2.53 |
| VGDSLRYWYAN | GKNNRPS | SSRDSSGFQVN | 1.91 3.80 2.32 | 2.68 |
| EGDSLRYYYAN | GKNGRPS | SSRDSSGFFVF | 2.57 2.88 2.60 | 2.68 |